Measurements: ChEMBL document CHEMBL1134881, “3-Pyrroline containing arylacetamides: a novel series of remarkably selective kappa-agonists” (2002)

Chains of the proteins cited; added tags and fusions are not shown. Lines headed by an entry give the natural chain unless they say otherwise; changes in a name come on top.
UniProt P35372, whole entry, looked up: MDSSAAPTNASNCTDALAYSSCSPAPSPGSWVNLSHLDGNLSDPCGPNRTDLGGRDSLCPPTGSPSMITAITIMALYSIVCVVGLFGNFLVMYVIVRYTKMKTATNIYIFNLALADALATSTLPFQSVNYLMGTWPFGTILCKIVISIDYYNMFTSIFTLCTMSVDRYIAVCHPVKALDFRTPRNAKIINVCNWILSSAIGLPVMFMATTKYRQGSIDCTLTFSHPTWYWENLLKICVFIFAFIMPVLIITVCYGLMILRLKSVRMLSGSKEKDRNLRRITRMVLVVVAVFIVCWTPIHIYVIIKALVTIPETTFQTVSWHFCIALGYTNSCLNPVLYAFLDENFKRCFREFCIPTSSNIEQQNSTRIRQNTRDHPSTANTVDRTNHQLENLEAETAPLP
UniProt P34975: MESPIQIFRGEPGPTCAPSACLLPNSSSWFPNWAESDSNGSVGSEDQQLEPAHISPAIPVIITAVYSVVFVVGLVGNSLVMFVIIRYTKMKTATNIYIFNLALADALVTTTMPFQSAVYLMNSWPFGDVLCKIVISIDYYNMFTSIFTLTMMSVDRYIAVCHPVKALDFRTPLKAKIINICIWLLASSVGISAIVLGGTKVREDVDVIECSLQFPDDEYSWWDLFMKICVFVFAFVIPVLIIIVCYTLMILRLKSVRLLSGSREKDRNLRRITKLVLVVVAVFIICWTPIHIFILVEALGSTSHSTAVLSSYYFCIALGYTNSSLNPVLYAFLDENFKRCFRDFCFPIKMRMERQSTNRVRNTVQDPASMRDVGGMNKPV

How the values were obtained:
[1] = biological target: Mu-type opioid receptor (Homo sapiens) (UniProt P35372); experiment: Displacement of [3H]diprenorphine in cloned human Opioid receptor mu 1 expressed in Sf9 insect cells at a concentration of 10 *10e-6 M
[2] = biological target: Kappa-type opioid receptor (Rattus norvegicus) (UniProt P34975); experiment: Percent inhibition of [3H]diprenorphine binding in cloned rat Opioid receptor kappa 1 expressed in Sf9 insect cells at a concentration of 10e-6 M
[3] = biological target: Mu-type opioid receptor (Homo sapiens) (UniProt P35372); experiment: Percent inhibition of [3H]diprenorphine binding in cloned human Opioid receptor mu 1 expressed in Sf9 insect cells at a concentration of 10 *10e-6 M

| Compound | inhibition [1] | inhibition [2] | inhibition [3] |
| --- | --- | --- | --- |
| CSCC[C@@H](CN1CC=CC1)N(C)C(=O)Cc1ccc([N+](=O)[O-])cc1 | 0% | – | – |
| CSCC[C@@H](CN1CC=CC1)N(C)C(=O)Cc1ccc(Cl)cc1 | 0% | 64% | – |
| CC(C)[C@@H](CN1CC=CC1)N(C)C(=O)Cc1ccc([N+](=O)[O-])cc1 | – | 80% | 10.5% |
| CSCC[C@@H](CN1CC=CC1)N(C)C(=O)Cc1ccc(Br)cc1 | 0% | 80% | – |
| CC(C)[C@@H](CN1CC=CC1)N(C)C(=O)Cc1ccc(F)cc1 | – | 37% | 46.5% |
| CC(C)[C@@H](CN1CC=CC1)N(C)C(=O)Cc1ccc(Cl)cc1 | – | 60% | 42% |
| COc1ccc(CC(=O)N(C)[C@@H](CCSC)CN2CC=CC2)cc1 | 0% | 80% | – |
| CC(C)[C@@H](CN1CC=CC1)N(C)C(=O)Cc1ccc(Cl)c(Cl)c1 | 0% | – | – |
| CC(C)[C@@H](CN1CC=CC1)N(C)C(=O)Cc1ccc(Br)cc1 | 0% | 90% | – |
| CSCC[C@@H](CN1CC=CC1)N(C)C(=O)Cc1ccc(Cl)c(Cl)c1 | – | 90% | 11.5% |
| CSCC[C@@H](CN1CC=CC1)N(C)C(=O)Cc1ccc(F)cc1 | 0% | 70% | – |
| COc1ccc(CC(=O)N(C)[C@H](CN2CC=CC2)C(C)C)cc1 | – | 70% | 13.5% |
